The text below walks through data of patent US8426179B2, “Synthetic peptide and peptide conjugates and related tissue coupling methods via transglutaminase enzyme” (priority 2007, dated 2013).

Where “and” joins values, the source holds several entries; their conditions need not be identical. Equal values may be shown once.

Data set [1] is described as follows: Release of hydrocortisone from coupled prodrugs on the articular surface of cartilage. The following applies: any of the fluids utilized.
A short description of data set [2]: Hydrolysis of the hydrocortisone prodrugs in solution (buffers). Format: physicochemical. The conditions noted are these: 1.0 mM, Buffer 1 (PBS, pH 7.4), 37° C. The method, then:
This solution also contained 2 mM 6α-methyl prednisolone as an internal standard. The samples were then stored at −20° C. until analyzed with RP-HPLC and eluted with a linear gradient of 24-55% acetonitrile in water with 0.1% TFA. The amount of hydrocortisone hydrolyzed from the prodrug was determined by comparing its peak area to that of 6α-methyl prednisolone. […] Thirty microliter samples were collected at 10, 20, 30, and 60 minutes and analyzed as previously described.

Take hydrocortisone-GFKG-PEG [TRIP-PC]: the “hydrocortisone hydrolysis from coupled prodrug, TRIP-C compared with TRIP-PC” value in data set [1] was “no difference in hydrocortisone hydrolysis”. The T50% in data set [2] is 50.2 min and 51.1 min.
